The nature of the series: Example 1: capacity of additives to bind dissolved La and Ce (ICP-OES). It is filed as physicochemical. As to conditions: test sample: La/Ce stock in 50 mL deionized water with 90-110 mg additive.

These results are taken from patent US12552694B2, “Use of trivalent metals to enhance aquatic pesticide efficacy, surface water, and sediment quality while minimizing risk to aquatic biota” (SePRO Corporation, priority 2022, dated 2026).

For `OCCN(CCO)CCO`, the pH is on record as 9.5.
